Measured values: patent US8163479B2, “Specific substrates for O6-alkylguanine-DNA alkyltransferase” (Ecole Polytechnique Federale de Lausanne, priority 2004, dated 2012)
Where a chain is given by its changes, count along the chain named.

Columns and labels:
[1] = molecular target: T1, AGT26-CaaX fusion protein in CHO cells deficient in endogenous wildtype AGT (Homo sapiens, UniProt P16455, A127T/C150S/C62A/G131K/G132T/K125A/M134L/N157G/R128A/R135S/S159E); format: cell-based
T1 construct: and truncation at 182 is also prepared according to the same method; expressed in transfected cells
T1 sequence (P16455 1-182 C62A/K125A/A127T/R128A/G131K/G132T/M134L/R135S/C150S/N157G/S159E): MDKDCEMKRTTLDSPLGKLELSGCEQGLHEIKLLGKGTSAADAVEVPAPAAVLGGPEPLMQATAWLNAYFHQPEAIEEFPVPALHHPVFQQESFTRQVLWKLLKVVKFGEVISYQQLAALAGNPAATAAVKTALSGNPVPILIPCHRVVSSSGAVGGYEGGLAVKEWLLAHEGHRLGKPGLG
Method: A fourth AGT mutant (“AGT26”) related to AGTM and containing the mutations Cys62Ala, Lys125Ala, Ala127Thr, Arg128Ala, Gly131Lys, Gly132Thr, Met134Leu, Arg135Ser, Cys150Ser, Asn157Gly, Ser159G1u, and truncation at 182 is also prepared according to the same method.
A vector for a fusion of AGT26 and the CaaX-farnesylation signal is transfected into CHO cells deficient in endogenous wildtype AGT. Stable transfectants are selected under geneticine treatment. For that purpose the gene of AGT26 is cloned into pCMV-Script (Stratagene) followed on its C-terminus by the CaaX-box sequence encoded in the pECP-F (Clontech). The final protein sequence (position 690-1271) yields a single polypeptide with 194 amino acids. In the stably transfected cell line this polypeptide leads to an AGT fusion protein localized to the inner surface of the cell membrane. […] All imaging is done with an inverted Zeiss fluorescence microscope Axiovert 40 CFL with filter sets for tetramethylrhodamine and for fluorescein.

[2] = molecular target: T2, AGT (Gly160Trp)-NLS3 fusion protein in the nucleus of CHO cells (Homo sapiens, UniProt P16455, G160W); assay: Intracellular competition of two AGT mutants with two substrates in CHO cells; format: cell-based; details: 5 μM BG-AcFL 20 min after 5 μM CPTG 10 min
T2 construct: expressed in transfected cells; host or cells: CHO cells, transient expression
T2 sequence (P16455 1-207 G160W): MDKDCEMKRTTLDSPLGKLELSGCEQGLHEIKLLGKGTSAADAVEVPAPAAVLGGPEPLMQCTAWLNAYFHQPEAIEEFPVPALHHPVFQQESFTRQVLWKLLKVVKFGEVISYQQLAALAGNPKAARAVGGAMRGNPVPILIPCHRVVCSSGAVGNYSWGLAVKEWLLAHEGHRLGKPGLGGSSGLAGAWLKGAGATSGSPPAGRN
Excerpt: (§1) The mutant AGTM (Example 47) is amplified with the suitable primers and cloned between the NheI and BglII sites of the vector pEGFP-Nuc. The yeast β-galactosidase gene is likewise amplified and subcloned into this vector via BglII/BamHI to result in a vector with an AGT-β-Gal fusion gene. The wild type hAGT gene is amplified and cloned via NheI/BglII into pEGFP-Nuc to result in an AGT-NLS3 fusion gene coding for the mutation Gly160Trp. After transient expression of both AGT mutants in parallel in CHO cells, the cells are incubated with 5 μM CPTG (18) for 10 min and subsequently with 5 μM of substance 4 of Juillerat et al., Chem Biol 10:313-317, 2003 (O^6-(4-(diacetyl-fluoresceine-carbonylaminomethyl)-benzyl)-guanine (BG-AcFL), for 20 min. The cells are washed and imaged according to standard procedures.

[3] = molecular target: T3, AGTM-β-galactosidase fusion protein in CHO cells (Homo sapiens, UniProt P16455, A127T/C150N/C62A/G131K/G132T/K125A/M134L/N157G/Q115S/Q116H/R128A/R135S/S151I/S152N/S159E); assay: as above; format: cell-based; details: 5 μM BG-AcFL 20 min after 5 μM CPTG 10 min
T3 construct: a truncation after codon 182 into the mutant AGT gene; expressed in transfected cells; host or cells: CHO cells, transient expression
T3 sequence (P16455 1-182 C62A/Q115S/Q116H/K125A/A127T/R128A/G131K/G132T/M134L/R135S/C150N/S151I/S152N/N157G/S159E): T1 sequence (P16455 1-182 C62A/K125A/A127T/R128A/G131K/G132T/M134L/R135S/C150S/N157G/S159E) with Q115S, Q116H, S150N, S151I, S152N
Excerpt: as §1

[4] = molecular target: T4, AGTM (mutant AGT) (Homo sapiens, UniProt P16455, A127T/C150N/C62A/G131K/G132T/K125A/M134L/N157G/Q115S/Q116H/R128A/R135S/S151I/S152N/S159E); assay: Reaction rate of AGT mutant with substrate, BGBT capture and Western blot; format: biochemical; details: AGTM 1 μM, substrate 10 μM, 24° C., pH 7.3
T4 construct: a truncation after codon 182 into the mutant AGT gene; 6xHis
T4 sequence (P16455 1-182 C62A/Q115S/Q116H/K125A/A127T/R128A/G131K/G132T/M134L/R135S/C150N/S151I/S152N/N157G/S159E): T1 sequence (P16455 1-182 C62A/K125A/A127T/R128A/G131K/G132T/M134L/R135S/C150S/N157G/S159E) with Q115S, Q116H, S150N, S151I, S152N
Excerpt: Proteins are then denatured with SDS and heat. Samples are subjected to SDS-PAGE and Western blot analysis. The intensity of the corresponding bands is detected by chemiluminescence stain.
A second AGT mutant (“AGTM”) containing the mutations Cys62Ala, Gln115Ser, Gln116His, Lys125Ala, Ala127Thr, Arg128Ala, Gly131Lys, Gly132Thr, Met134Leu, Arg135Ser, Cys150Asn, Ser15111e, Ser152Asn, Asn157Gly, Ser159G1u, and truncation at 182 is derived from the mentioned above AGT mutant by subsequent introduction of further mutations and a truncation after codon 182 into the mutant AGT gene. […] The GST-fusion protein is expressed and purified as well.
AGTM (1 μM final concentration) is incubated with N^9-cyclopentyl-O^6-(4-bromothiophen-2-yl)-guanine (18, CPTG) (10 μM in 1% DMSO final concentration) in reaction buffer (50 mM HEPES, 1 mM DTT, […] BSA, pH 7.3) at 24° C. […] The reaction is quenched by addition of SDS-Laemmli buffer and heating for 2 min at 95° C. Samples are run on a 12% acrylamide gel and analysed by Western blotting.

[5] = molecular target: T5, wild type hAGT (Homo sapiens, UniProt P16455); details: known values; cited from earlier work
T5 sequence (P16455 1-207): T2 sequence (P16455 1-207 G160W) with W160G

Substance: O^6-(4-(ATT0488-amidomethyl)-benzyl)-guanine [BG-Atto488]
- cell membrane permeability [1]: only very low cell membrane permeability
- labeling of cells (fluorescence microscopy) ([1]; 5 μM, 30 min, CHO cells with AGT26-CaaX): no significant labeling of the cells

Substance: O^6-(4-(diacetyl-fluoresceine-carbonylaminomethyl)-benzyl)-guanine [BG-AcFL, reference compound]
- fluorescence labeling of the AGT fusion protein in the nucleus [2]: No significant labeling
- fluorescence labeling of cytoplasmically localized AGT-β-galactosidase fusion protein [3]: selectively fluorescence labeled

Substance: biotinylated O^6-benzylguanine [BGBT, reference compound]
- second order rate constant k2 [4]: ~3,000 s^−1 M^−1
- rate constant of the reaction with wild type hAGT [5]: 400 s^−1M^−1
